This is an account of results in patent US9969699B2, “Cancer cell growth inhibitor, anticancer agent, and method for screening same, as well as novel compound” (Microbial Chemistry Research Foundation, priority 2014, dated 2018).

SMILES strings stand for the structures.

The subject of data set [1] is NIH3T3/EGFR vIII cell-transplanted tumor. As to conditions: mouse, in vivo.
Data set [2] relates to NIH3T3/EGFRWT cell-transplanted tumor. As to conditions: in vivo. The text has this: Note that, “*” denotes t<0.05.

In the case of `COc1cc2ncnc(Nc3ccc(F)c(Cl)c3)c2cc1OCCCN1CCOCC1` [Gefitinib, reference compound], the “tumor weight versus negative control group” value in data set [1] and in data set [2] (mouse) was “significantly different” each time. In addition, the “mouse body weight (weight loss)” value in data set [2] was “weight loss was observed”.
